Results taken from patent publication US8288365B2, “Phenazopyridine compounds” (Pinnacle Pharmaceuticals, Inc., priority 2008, dated 2012).

Experiment: PAP pharmacokinetics in rats after oral Gly-PAP salt forms
Type: in vivo
Conditions: PAP in rat plasma, 2.5 mg/kg PAP base equivalent (2.8 for free base)
Protocol: The oral bioavailability of PAP (phenazopyridine) prodrugs was evaluated in healthy rats. All the PAP amide (amino acid derivatives) bases were dissolved in 0.1N HCl (the same result can be obtained with a lower molarity), while the carbamates were dissolved in PEG-400 due to the very poor aqueous solubility of the PAP-carbamates. In general, all of the amino acid amide derivatives of PAP had higher water solubility than those of the PAP-carbamates. In another PK study, PAP.HCL salt, Gly-PAP.HCl salt and Gly-PAP.mesylate salt were dissolved in water, affording a clear solution in each case prior to oral administration.
The rats were fasted overnight prior to dosing. Appropriate amount of each compound was administered via gastric gavages, and at predetermined time (1, 2, 4, 6, and 24 h) blood samples were withdrawn from the rats. The whole blood was centrifuged immediately, and supernatant (plasma) was collected. The plasma samples were assayed for PAP using LC-MS-MS.
The pharmacokinetics of various salts of Gly-PAP were compared following oral administration to rats. All salt forms improved the oral bioavailability of phenazopyridine as compared to biovailability from phenazopyridine HCl.

## phenazopyridine hydrochloride [PAP•HCl]
  T1/2: 48 min
